The text below walks through data of US9486455B2, “Compounds for modulating TRPV3 function” (HYDRA BIOSCIENCES, INC., priority 2007, dated 2016).

The chains behind the UniProt entries cited, without tags or fusion partners. Residues count along the entry.
UniProt Q8NET8, whole entry: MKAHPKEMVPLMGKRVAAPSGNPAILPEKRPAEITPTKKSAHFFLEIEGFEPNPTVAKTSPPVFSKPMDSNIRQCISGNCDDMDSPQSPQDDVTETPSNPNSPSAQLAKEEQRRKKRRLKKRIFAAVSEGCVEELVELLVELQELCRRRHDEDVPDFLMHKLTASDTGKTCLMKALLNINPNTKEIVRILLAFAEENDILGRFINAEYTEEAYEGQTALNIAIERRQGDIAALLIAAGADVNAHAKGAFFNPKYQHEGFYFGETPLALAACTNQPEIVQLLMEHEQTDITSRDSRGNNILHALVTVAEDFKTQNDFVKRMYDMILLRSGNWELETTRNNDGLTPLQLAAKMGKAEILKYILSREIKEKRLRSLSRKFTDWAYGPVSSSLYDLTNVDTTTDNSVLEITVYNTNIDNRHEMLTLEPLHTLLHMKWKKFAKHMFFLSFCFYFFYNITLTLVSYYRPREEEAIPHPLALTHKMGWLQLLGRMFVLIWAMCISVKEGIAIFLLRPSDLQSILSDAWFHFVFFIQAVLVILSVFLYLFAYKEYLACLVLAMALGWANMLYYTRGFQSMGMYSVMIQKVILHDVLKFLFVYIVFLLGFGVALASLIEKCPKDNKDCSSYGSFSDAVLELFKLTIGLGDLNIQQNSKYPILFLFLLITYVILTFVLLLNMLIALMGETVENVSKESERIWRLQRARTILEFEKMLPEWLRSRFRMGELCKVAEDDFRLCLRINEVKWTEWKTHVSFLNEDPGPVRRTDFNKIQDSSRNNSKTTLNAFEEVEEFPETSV
UniProt Q4QYD9, 1-791: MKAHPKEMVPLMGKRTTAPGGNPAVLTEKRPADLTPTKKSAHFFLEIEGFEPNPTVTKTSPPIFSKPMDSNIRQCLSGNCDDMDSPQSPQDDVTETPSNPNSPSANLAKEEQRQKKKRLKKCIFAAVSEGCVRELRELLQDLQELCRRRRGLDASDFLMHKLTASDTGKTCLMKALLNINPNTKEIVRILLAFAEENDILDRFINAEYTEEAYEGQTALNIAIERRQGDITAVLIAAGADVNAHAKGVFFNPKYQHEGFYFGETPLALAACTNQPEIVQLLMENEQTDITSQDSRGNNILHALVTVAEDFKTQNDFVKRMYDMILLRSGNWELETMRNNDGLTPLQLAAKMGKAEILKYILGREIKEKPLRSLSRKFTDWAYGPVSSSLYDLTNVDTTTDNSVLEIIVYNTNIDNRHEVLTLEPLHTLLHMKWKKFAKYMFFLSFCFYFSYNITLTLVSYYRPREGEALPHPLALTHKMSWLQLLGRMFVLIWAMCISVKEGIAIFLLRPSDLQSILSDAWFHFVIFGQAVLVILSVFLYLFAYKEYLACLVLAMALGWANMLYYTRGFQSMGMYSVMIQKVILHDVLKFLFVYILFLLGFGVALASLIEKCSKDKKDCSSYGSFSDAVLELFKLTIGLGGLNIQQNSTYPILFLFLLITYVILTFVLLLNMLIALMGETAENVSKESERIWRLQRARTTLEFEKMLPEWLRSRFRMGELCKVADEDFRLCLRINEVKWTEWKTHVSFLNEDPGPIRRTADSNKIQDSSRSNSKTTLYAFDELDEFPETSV

Structures are written as SMILES. Where two headings read alike, the source gives them in different places.

One experiment addresses human (h) TRPV3 (Homo sapiens, UniProt Q8NET8). Description: Whole-cell patch clamp, human TRPV3-mediated currents. The text has this: (§1) Whole-cell patch clamp experiments permit the detection of currents through the TRPV3 channel in the cell line described above. A glass electrode is brought into contact with a single cell and the membrane is then ruptured, permitting control of the voltage of the cell membrane and measurement of currents flowing across the membrane using the amplifier attached to the electrode. A perfusion system permits control of the extracellular solution, including the addition of blockers and activators of the current. The current can be activated by heating this solution to 28° C. or warmer or by addition of 20 μM 2-APB to the solution.
(§2) TRPV3 cells were induced 20-48 hours, removed from growth plates, and replated at low density (to attain good single-cell physical separation) on glass coverslips for measurement. In some cases, cells were grown in low density overnight on glass coverslips. Patch clamp recordings were made in the whole-cell mode with a holding potential of −40 mV. Every 5 seconds, a voltage ramp was applied from −120 to +100 mV, 400 ms in duration. Currents elicited were quantified at −80 mV and +80 mV. The internal solution consisted of 140 mM cesium aspartate, 10 mM EGTA, 2.27 mM MgCl2, 1.91 mM CaCl2 and 10 mM HEPES, pH to 7.2 with KOH; with 50 nM calculated free Ca^2+. External solution was Ringer's solution described above. Upon addition of 2-APB or upon heating of the extracellular solution as described above, TRPV3 current was induced only in TRPV3-expressing cells and not in parental HEK293 TREx cells. […] Removal of the stimulus caused most of the current to go away, and inhibitor addition could still inhibit this current. Compounds of interest were tested against TRPV3 at concentrations up to 30 μM, and the resulting data was used to estimate IC50 for inhibition of the Phase 1 and Phase 2 TRPV3-mediated currents.
(§3) P1 refers to the Phase 1 current for human (h) and rat (r) TRPV3, and P2 refers to the Phase 2 current for human (h) and rat (r) TRPV3.
Background: In patch-clamp work, channel activity is measured electrically.

The target of a further experiment is rat (r) TRPV3 (Rattus norvegicus, UniProt Q4QYD9). Put plainly: Whole-cell patch clamp, rat TRPV3-mediated currents.
Text: as §1, §2, §3

[1] abbreviates: read-out: P1 In (h), Phase 1 inward current.
Setting [2] is: read-out: P1 Out (h), Phase 1 outward current.
Where [3] appears, read: read-out: P2 In (h), Phase 2 inward current.
Where [4] appears, read: read-out: P2 Out (h), Phase 2 outward current.
Where [5] appears, read: read-out: P1 In (r), Phase 1 inward current.
Setting [6] is: read-out: P1 Out (r), Phase 1 outward current.

For `COc1cccc(C(=O)Nc2nc3ccccc3c(=O)n2-c2c(C)cccc2C)c1O`, the IC50 at human (h) TRPV3 (setting [1]), at human (h) TRPV3 (setting [2]), at human (h) TRPV3 (setting [3]) and on human (h) TRPV3 (setting [4]) was no more than 10000 nM throughout.
Consider `Cc1cccc(C)c1-n1c(/C=C/c2cc(F)ccc2O)nc2cnccc2c1=O`, for which the IC50 at human (h) TRPV3 (setting [1]) is no more than 10000 nM; on human (h) TRPV3 (setting [2]), no more than 5000 nM.
Regarding `CCOc1nccc(/C=C/c2nc3ccccc3c(=O)n2-c2c(F)cccc2F)c1O`, the IC50 at human (h) TRPV3 (setting [1]), at human (h) TRPV3 (setting [2]), at human (h) TRPV3 (setting [3]), at human (h) TRPV3 (setting [4]), on rat (r) TRPV3 (setting [5]) and on rat (r) TRPV3 (setting [6]) was no more than 500 nM each time. Also, the IC50 was no more than 500 nM on rat (r) TRPV3 (read-out: P2 In (r), Phase 2 inward current) and no more than 500 nM on rat (r) TRPV3 (read-out: P2 Out (r), Phase 2 outward current).
For the compound `COc1nccc(/C=C/c2nc3ccccc3c(=O)n2-c2c(F)cccc2F)c1O`, the IC50 on human (h) TRPV3 (setting [1]), at human (h) TRPV3 (setting [2]), on human (h) TRPV3 (setting [3]), at human (h) TRPV3 (setting [4]), on rat (r) TRPV3 (setting [5]) and at rat (r) TRPV3 (setting [6]) was no more than 500 nM throughout.
Consider `Cc1cccc(C)c1-n1c(/C=C/c2cnc(N)nc2)nc2cnccc2c1=O`, for which the IC50 on human (h) TRPV3 (setting [1]) and at human (h) TRPV3 (setting [2]) was no more than 5000 nM throughout.
In the case of `Cc1nc2cccc(/C=C/c3nc4cnccc4c(=O)n3-c3c(C)cccc3C)c2[nH]1`, the IC50 on human (h) TRPV3 (setting [1]) and at human (h) TRPV3 (setting [2]) was no more than 10000 nM each time.
